{"source": "patent US5556849A", "about": "“Ruthenium containing phthalocyanin photosensitizers” (priority 1991, dated 1996)", "assay": "Light absorption maxima and molar extinction coefficients", "type": "physicochemical", "conditions": "in water (W)", "protocol": "Compounds according to the invention were assessed and characterised by their light absorption maxima, and their molar extinction coefficients according to conventional test procedures. Most of the compound were tested for their biological activity according to conventional test procedures in the art. The PC50 represents phototoxic concentration 50%. which is the concentration of compound when exposed to a light dose as described herein, causes a 50% reduction in cancer cell growth vs an untreated control population. The phototoxicity index. PI, is the ratio of the PC50 to the cytotoxic concentration 50%. where the growth is reduced by 50% without a light dose being given.", "data": [{"smiles": "NCCC(=O)[O-].NCCC(=O)[O-].[K+].[K+].c1ccc2c(c1)C1=NC3=NC(=Nc4c5ccccc5c5[n]4[Ru][n]4c(c6ccccc6c4=N5)=NC2=N1)c1ccccc13", "note": "[RuPc(β-ALA)2]", "values": [{"measurement": "λmax Q", "result": 635}]}, {"smiles": "Fc1c(F)c(F)c2c(c1F)C1=NC2=Nc2c3c(F)c(F)c(F)c(F)c3c3[n]2[Ru][n]2c(c4c(F)c(F)c(F)c(F)c4c2=NC2=NC(=N3)c3c(F)c(F)c(F)c(F)c32)=N1.O=C(O)c1cccnc1.O=C(O)c1cccnc1", "note": "[RuF16 Pc(Nic)2]", "values": [{"measurement": "λmax Q", "result": 635}]}]}
